# Membrane permeability of cyclic peptides

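Conditions beyond the assay type are not listed; see the original paper. The list need not hold all peptides of the study. Peptides that the database sets to -10, its floor, are left out.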

PAMPA is the parallel artificial membrane permeability assay, which has no cells and reads passive diffusion. Permeability is in 10^-6 cm/s, converted from the database's log10 values; higher is more permeable.

SMILES,PAMPA (10^-6 cm/s)
CCC[C@H](C)[C@@H](OC)[C@@H](C)[C@@H]1C/C=C(\C)C(=O)O[C@H]([C@@H](C)CC)C(=O)N[C@@H](C)C(=O)N(C)[C@H](Cc2ccccc2)C(=O)N(C)CC(=O)N[C@@H]([C@@H](C)CC)C(=O)N(C)[C@@H](C)C(=O)O1,0.81
CCC[C@H](C)[C@H]1OC(=O)[C@H](C)N(C)C(=O)[C@H]([C@@H](C)CC)NC(=O)CN(C)C(=O)[C@@H](Cc2ccccc2)N(C)C(=O)[C@H](C)NC(=O)[C@@H]([C@@H](C)CC)OC(=O)/C(C)=C/C[C@H](O)[C@@H]1C,34
CCC[C@H](C)[C@H]1OC(=O)[C@H](C)N(C)C(=O)[C@H]([C@@H](C)CC)NC(=O)CNC(=O)[C@@H](Cc2ccccc2)N(C)C(=O)[C@H](C)NC(=O)[C@@H]([C@@H](C)CC)OC(=O)/C(C)=C/C[C@H](O)[C@@H]1C,12
CCC[C@H](C)[C@H]1OC(=O)[C@H](C)N(C)C(=O)[C@H]([C@@H](C)CC)NC(=O)CN(C)C(=O)[C@@H](Cc2ccccc2)N(C)C(=O)[C@H](C)NC(=O)[C@@H]([C@@H](C)CC)OC(=O)/C(C)=C/C[C@H](OC)[C@@H]1C,2.1
CCC[C@H](C)[C@H]1OC(=O)[C@H](C)N(C)C(=O)[C@H]([C@@H](C)CC)NC(=O)CN(C)C(=O)[C@@H](Cc2ccccc2)NC(=O)[C@H](C)NC(=O)[C@@H]([C@@H](C)CC)OC(=O)/C(C)=C/C[C@H](O)[C@@H]1C,3.8
CCC[C@H](C)[C@H]1OC(=O)[C@@H](C)N(C)C(=O)[C@H]([C@@H](C)CC)NC(=O)CN(C)C(=O)[C@@H](Cc2ccccc2)N(C)C(=O)[C@H](C)NC(=O)[C@@H]([C@@H](C)CC)OC(=O)/C(C)=C/C[C@H](O)[C@@H]1C,13
CCC[C@H](C)[C@H]1OC(=O)[C@H](C)N(C)C(=O)[C@H]([C@@H](C)CC)NC(=O)CN(C)C(=O)[C@@H](Cc2ccccc2)N(C)C(=O)[C@@H](C)NC(=O)[C@@H]([C@@H](C)CC)OC(=O)/C(C)=C/C[C@H](O)[C@@H]1C,4.1

Data: CycPeptMPDB; original report Kaneda et al. 2018, doi:10.1021/acsmedchemlett.8b00028.